# The entries are a selection whose mix differs from that of the whole data set. Measured potencies and affinities stand elsewhere. Some of these compounds have results that are not shown, active ones among them. The source made the active and inactive calls. No rule for the calls is given here.
# Sequences of proteins named here, by UniProt entry; tags and fusion partners are left off.
# UniProt P11142, whole entry: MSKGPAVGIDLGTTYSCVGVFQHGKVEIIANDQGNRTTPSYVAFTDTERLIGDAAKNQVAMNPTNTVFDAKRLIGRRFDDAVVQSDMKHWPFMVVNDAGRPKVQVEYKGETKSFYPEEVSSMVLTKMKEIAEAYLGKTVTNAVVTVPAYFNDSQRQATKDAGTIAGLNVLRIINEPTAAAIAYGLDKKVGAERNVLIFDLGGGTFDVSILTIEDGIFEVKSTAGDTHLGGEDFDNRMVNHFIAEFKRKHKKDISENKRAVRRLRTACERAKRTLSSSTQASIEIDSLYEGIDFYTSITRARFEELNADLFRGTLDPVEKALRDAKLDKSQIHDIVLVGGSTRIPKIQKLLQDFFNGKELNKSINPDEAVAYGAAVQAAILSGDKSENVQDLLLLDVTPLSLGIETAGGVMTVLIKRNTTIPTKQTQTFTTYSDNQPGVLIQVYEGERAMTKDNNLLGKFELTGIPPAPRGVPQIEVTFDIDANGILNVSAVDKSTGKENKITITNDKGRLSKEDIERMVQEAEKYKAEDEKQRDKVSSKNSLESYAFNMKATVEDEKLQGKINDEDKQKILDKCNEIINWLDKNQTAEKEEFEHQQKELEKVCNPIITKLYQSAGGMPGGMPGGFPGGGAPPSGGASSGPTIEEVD
# Molecular target: Heat shock cognate 71 kDa protein (Homo sapiens) (UniProt P11142)
# Test: small molecules displacing fluorescent ligand from Hsc70 – biochemical, fluorescence polarization, primary screen (AID 568)
# Details: mP, at 20 µM, active compounds read high
row,Structure (SMILES),displacement
1,CN(C)c1cccc(C(=O)NCC2(N(C)C)CCCCC2)c1,inactive: 3.5%
2,O=C(OC1CN2CCC1CC2)C(CO)(c1ccccc1)c1ccccc1 (configuration not stated),inactive: 3.2%
